Antibody variant affinities, Ab-14 heavy chain, assay B

Data: MIT Lincoln Laboratory AlphaSeq set, Li et al. 2023, doi:10.1038/s41467-023-39022-2, as distributed in FLAb.

Antigen: PDVDLGDISGINAS, a 14-residue peptide of the SARS-CoV-2 spike HR2 region.

Parent: Ab-14, a human scFv built as VH, a (GGGGS)3 linker, VL. Only the CDRs of the heavy chain vary.
VH: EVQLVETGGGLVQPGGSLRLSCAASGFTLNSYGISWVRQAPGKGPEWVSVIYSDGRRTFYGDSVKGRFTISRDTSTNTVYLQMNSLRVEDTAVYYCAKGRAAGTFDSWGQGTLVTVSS
VL: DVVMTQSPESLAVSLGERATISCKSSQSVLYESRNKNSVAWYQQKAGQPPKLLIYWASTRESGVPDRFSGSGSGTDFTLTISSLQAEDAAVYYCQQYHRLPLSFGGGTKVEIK

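Phage display of a naive human antibody library on the peptide gave the parent. Designed CDR sequences, proposed from the first random library and measured here. Their group label is 14H_En_Gen (En: ensemble of fine-tuned language models; Gen: genetic algorithm). Affinity was read by AlphaSeq, a pooled yeast mating assay with surface-displayed partners. Binding brings cells together so that they mate, and sequencing counts the barcode pairs among the diploids. Read counts were normalised to the haploid input and turned into Kd by a linear fit to BCL2-family pairs of known affinity, for each replicate. Mating was done six times.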

The parent's heavy chain CDRs are GFTLNSYGIS, VIYSDGRRTFYGDSVK, GRAAGTFDS; each variant's own CDRs replace them letter for letter. Scale: log10 of Kd in nM, estimated from mating counts; low values are strong binders. A mean of the replicates is given; it leaves out those without a signal. An entry "ND" has no value in the source: the pair was not observed among the diploids in that replicate. This suggests poor binding but is not conclusive. Background: pairings of all heavy chain designs with three empty control strains gave a value in 1% of cases (median 2.08, 5th percentile 0.84). Values in that range, when seen in few replicates, are hard to tell from nonspecific mating. For each scFv, signals with the empty controls are counted beside the result. The parent sequence was in this pool as ten entries: three were never detected, three once, and four in most replicates, with averages from 0.34 to 2.37. A sequence measured in both rounds can read differently, since the two assays cover different ranges. In the paper, a design with two or fewer of six values counts as a poor binder.

The variant GFDLNEYGIS / VIYADGKRTAYADSVK / GNNAGTFDL gave -0.16, -0.63, -0.36, -0.35, -0.35, -0.17 (mean -0.34; controls 2 of 18).
The variant GFDLDEYGIS / VIYADGKRTAYADSVK / GQNAGTFDL gave -0.18, -0.40, -0.56, -0.67, -0.05, -0.29 (mean -0.36; controls 0 of 18).
The variant GFDLNEYGIS / VIYADGVRTFYADSVK / GETAGTFDV gave -0.14, -0.43, -0.22, -0.22, 0.04, -0.27 (mean -0.21; controls 0 of 18).
The variant GFDLNEYGIS / VIYADGQRTAYADSVK / GQVAGTFDV gave 0.55, 0.76, 0.52, 0.43, 0.82, 1.07 (mean 0.69; controls 2 of 18).
The variant GFDLNEYGIS / VIYADGMRTAYADNVK / GEVAGTFDM gave -0.38, -0.33, -0.67, -0.47, -0.40, -0.33 (mean -0.43; controls 0 of 18).
The variant GFDLDEYGIS / VIYADGRRTAYADSVK / GENAGTFDT gave -0.20, -0.39, -0.24, -0.67, -0.73, -0.61 (mean -0.47; controls 0 of 18).
The variant GFDLEEYGIS / VIYADGQRTAYADSVK / GNQAGTFDV gave ND, ND, ND, -1.82, ND, ND (controls 0 of 18).
The variant GFDLNEYGIS / VIYADGMRTAYADSVK / GNAAGTFDI gave -0.50, ND, -0.29, 0.19, -0.77, 0.60 (mean -0.15; controls 0 of 18).
The variant GFDLNEYGIS / VIYADGMRTAYSDSVK / GNNAGTFDM gave 0.12, -0.16, -0.35, -0.26, -0.09, 0.21 (mean -0.09; controls 0 of 18).
The variant GFDLNEYGIS / VIYADGVRTAYANSVK / GEVAGTFDV gave 0.26, -0.06, 0.62, 0.13, 0.36, -0.04 (mean 0.21; controls 0 of 18).
The variant GFDLDEYGIS / VIYADGMRTAYVDSVK / GETAGTFDV gave 0.18, 0.00, 0.45, 0.50, 0.07, 0.46 (mean 0.28; controls 0 of 18).
The variant GFDLNEYGIS / VIYADGMRTYYADSVK / GEVAGTFDV gave 1.50, -0.25, -0.13, -0.20, -0.39, 0.30 (mean 0.14; controls 0 of 18).
The variant GFDLEEYGIS / VIYADGVRTAYSDSVK / GNVAGTFDV gave 0.05, 0.07, 0.03, -0.09, -0.15, 0.13 (mean 0.01; controls 0 of 18).
The variant GFDLNEYGIS / VIYADGMRTAYADSVK / GQTAGTFDT gave -0.22, -0.43, -0.30, -0.67, -0.48, -0.09 (mean -0.36; controls 0 of 18).
The variant GFDLNEYGIS / VIYADGKRTAYADSVK / GENGGTFDV gave 0.48, 0.00, -0.22, 0.39, ND, 1.53 (mean 0.44; controls 0 of 18).
The variant GFDLNEYGIS / VIYADGMRTAYSDSVK / GNNAGTFDL gave 0.03, -0.86, -0.82, -1.28, -0.94, -0.75 (mean -0.77; controls 0 of 18).
The variant GFDLNEYGIS / VIYADGMRKFYADSVK / GNQAGTFDV gave 0.36, 0.06, 0.14, 0.21, 0.26, 0.41 (mean 0.24; controls 0 of 18).
The variant GFDINEYGIS / VIYADGMRTAYADSVK / GNNAGTFDV gave -0.09, -0.69, -0.66, -0.56, -0.51, -0.26 (mean -0.46; controls 0 of 18).
The variant GFDLNEYGIS / VIYADGLRTAYADSVK / GNVAGTFDV gave -0.40, -0.66, -0.42, -0.36, -0.76, -0.23 (mean -0.47; controls 0 of 18).
The variant GFDLNEYGIS / VIYADGKRQAYADSVK / GNNAGTFDV gave -0.75, -0.78, -1.10, -0.69, -0.36, -0.77 (mean -0.74; controls 0 of 18).
The variant GFDLNEYGIS / VIYADGRRTAYSDSVK / GEVAGTFDT gave -0.38, -0.22, -0.34, -0.65, -0.61, 0.00 (mean -0.37; controls 2 of 18).
The variant GFDLDEYGIS / VIYADGMRTAYADSVK / GENAGTFDV gave -0.78, -0.61, -0.81, -0.46, -0.45, 0.58 (mean -0.42; controls 0 of 18).
The variant GFDLNEYGIS / VIYADGMRTYYADSVK / GGNAGTFDI gave 0.60, 0.06, -0.08, 0.44, 0.15, 0.27 (mean 0.24; controls 1 of 18).
The variant GFDLNEYGIS / VIYADGQRTFYADSVK / GNQAGTFDI gave -0.11, -0.50, -0.57, -0.63, -0.52, -0.20 (mean -0.42; controls 0 of 18).
The variant GFDLNEYGIS / VIYADGVRTAYTDSVK / GENAGTFDT gave -0.17, -0.29, -0.96, -0.96, -0.65, -0.64 (mean -0.61; controls 0 of 18).
The variant GFDLNEYGIS / VIYADGRRTAYADSVK / GEVAGTFDQ gave -0.63, -0.59, -0.27, -1.10, ND, -0.54 (mean -0.63; controls 0 of 18).
The variant GFDLDEYGIS / VIYADGKRTAYADSVK / GTNAGTFDM gave ND, -0.06, -0.69, ND, 0.49, 0.54 (mean 0.07; controls 0 of 18).
The variant GFDLNEYGIS / VIYADGKRTAYADKVK / GNVAGTFDV gave -0.75, -0.01, -1.01, -1.19, -0.67, -0.72 (mean -0.72; controls 0 of 18).
The variant GFDLNEYGIS / VIYADGMRTAYADDVK / GNTAGTFDM gave -0.25, -0.26, -0.58, -0.26, -0.38, -0.20 (mean -0.32; controls 1 of 18).
The variant GFDLDEYGIS / VIYADGMRKAYADSVK / GENAGTFDV gave ND, -0.41, ND, -0.45, -1.53, ND (mean -0.80; controls 0 of 18).
The variant GFDLEDYGIS / VIYADGRRTAYADSVK / GNVAGTFDT gave 0.16, -0.21, -0.13, -0.21, 0.31, 0.01 (mean -0.01; controls 0 of 18).
The variant GFDLDEYGIS / VIYADGSRTVYADSVK / GENAGTFDV gave 0.45, 0.02, -0.07, -0.38, 0.52, 0.13 (mean 0.11; controls 1 of 18).
The variant GFDLNEYGIS / VIYADGRRTAYVDDVK / GNNAGTFDV gave -0.77, -0.90, -0.82, -1.17, -0.43, -0.08 (mean -0.69; controls 0 of 18).
The variant GFDLDEYGIS / VIYADGVRTAYADSVK / GNVAGTFDM gave 0.16, -0.33, 0.02, 0.01, 0.08, 0.26 (mean 0.04; controls 1 of 18).
The variant GFDLNEYGIS / VIYADGKRTFYADSVK / GEVAGTFDQ gave -0.21, -0.25, -0.41, 0.13, -0.26, -0.26 (mean -0.21; controls 1 of 18).
The variant GFDLNEYGIS / VIYADGMRTFYADNVK / GNQAGTFDV gave 0.05, 0.15, -0.60, -0.27, -0.37, 0.31 (mean -0.12; controls 0 of 18).
The variant GFDLNEYGIS / VIYADGKRTAYIDSVK / GEVAGTFDQ gave -0.26, -0.47, -0.65, -0.24, -0.63, 0.34 (mean -0.32; controls 0 of 18).
The variant GFDLNEYGIS / VIYADGKRTAYADNVK / GEVAGTFDV gave -0.53, -0.65, -0.75, -0.55, -0.45, -0.74 (mean -0.61; controls 0 of 18).
The variant GFDLNEYGIS / VIYADGRRTAYADSVK / GNQAGTFDL gave 0.20, 0.41, 1.53, -0.39, -0.25, -0.14 (mean 0.23; controls 0 of 18).
The variant GFNLDEYGIS / VIYADGMRTAYADDVK / GNVAGTFDV gave -0.39, -0.15, -0.53, -0.78, -0.90, -0.30 (mean -0.51; controls 3 of 18).
The variant GFDLNEYGIS / VIYADGKRTSYADDVK / GENAGTFDV gave -0.73, -0.58, -0.70, -0.72, -0.70, 0.01 (mean -0.57; controls 0 of 18).
The variant GFDLNEYGIS / VIYADGVRTFYADSVK / GENAGTFDI gave -0.11, 0.25, 0.33, -0.15, -0.22, -0.11 (mean 0.00; controls 0 of 18).
The variant GFDLDEYGIS / VIYADGMRTAYADKVK / GNVAGTFDQ gave -0.28, -0.66, -0.60, -0.64, -0.74, -0.52 (mean -0.57; controls 1 of 18).
The variant GFDLDEYGIS / VIYADGMRTFYADSVK / GETAGTFDV gave -0.09, -0.41, -0.34, -0.52, -0.56, -0.34 (mean -0.38; controls 0 of 18).
The variant GFDLNEYGIS / VIYADGKRTAYTDSVK / GETAGTFDQ gave -0.06, -0.19, -1.04, -0.31, -0.24, 0.23 (mean -0.27; controls 0 of 18).
The variant GFDLNEYGIS / VIYADGMRTAYADSVK / GGNAGTFDV gave 0.07, 0.27, -0.86, -0.55, -0.46, -0.02 (mean -0.26; controls 0 of 18).
The variant GFDLNEYGIS / VIYADGVRTAYSDSVK / GNNAGTFDL gave -0.17, -0.46, -0.60, -0.75, -0.37, -0.49 (mean -0.47; controls 0 of 18).
The variant GFDLDEYGIS / VIYADGMRTAYADSVK / GKNAGTFDL gave -0.28, -0.59, -0.73, -0.70, -0.76, -0.36 (mean -0.57; controls 0 of 18).
The variant GFDLNEYGIS / VIYADGKRTAYTDSVK / GNTAGTFDI gave -0.43, -0.74, -0.71, -1.05, -0.27, -0.13 (mean -0.56; controls 0 of 18).
The variant GFDLNEYGIS / VIYADGMRTAYADSVK / GNTAGTFDM gave -0.51, -0.49, -0.70, -1.26, -0.82, -0.65 (mean -0.74; controls 0 of 18).
The variant GFDLNEYGIS / VIYADGQRTAYADDVK / GENAGTFDV gave -0.12, 0.08, -0.30, -0.46, -0.26, 0.24 (mean -0.14; controls 0 of 18).

The last 7 entries again:

GFDLNEYGIS / VIYADGKRTAYTDSVK / GETAGTFDQ: -0.06, -0.19, -1.04, -0.31, -0.24, 0.23 (mean -0.27; controls 0 of 18).
GFDLNEYGIS / VIYADGMRTAYADSVK / GGNAGTFDV: 0.07, 0.27, -0.86, -0.55, -0.46, -0.02 (mean -0.26; controls 0 of 18).
GFDLNEYGIS / VIYADGVRTAYSDSVK / GNNAGTFDL: -0.17, -0.46, -0.60, -0.75, -0.37, -0.49 (mean -0.47; controls 0 of 18).
GFDLDEYGIS / VIYADGMRTAYADSVK / GKNAGTFDL: -0.28, -0.59, -0.73, -0.70, -0.76, -0.36 (mean -0.57; controls 0 of 18).
GFDLNEYGIS / VIYADGKRTAYTDSVK / GNTAGTFDI: -0.43, -0.74, -0.71, -1.05, -0.27, -0.13 (mean -0.56; controls 0 of 18).
GFDLNEYGIS / VIYADGMRTAYADSVK / GNTAGTFDM: -0.51, -0.49, -0.70, -1.26, -0.82, -0.65 (mean -0.74; controls 0 of 18).
GFDLNEYGIS / VIYADGQRTAYADDVK / GENAGTFDV: -0.12, 0.08, -0.30, -0.46, -0.26, 0.24 (mean -0.14; controls 0 of 18).